Biological target: fibrinogen fragment D (human)
Experiment: bacterial cell adhesion ELISA; wells coated with 1 µg human fibrinogen or fragment D, blocked with 20 mg/mL BSA; 3×10^8 leptospires, 1 h at 30°C; adherent cells fixed with formaldehyde and detected with a rabbit antibody to L. biflexa; increase over wild-type L. biflexa

Substance “LigB from L. interrogans expressed on L. biflexa (ligB transformant) (natural protein)” has a percent increase of adhesion over wild-type L. biflexa of 73%.

— publication PMC3036719
